Experimental data taken from PubChem BioAssay AID485298 (National Center for Advancing Translational Sciences (NCATS), 2010).
Only a part is listed here, and it is no random draw. Activity calls are given as the source filed them. Calls follow the shape of the dose curve; as a rule, active = well fitted activation curve with a large enough effect; inconclusive = small, poorly fitted or top-dose-only effect; inactive = no such curve, though single readings can be large or run the other way.

Experiment: qHTS Assay for Small Molecule Inhibitors of Mitochondrial Division or Activators of Mitochondrial Fusion; also: % of control where 0% means no effect; nearly all actives have a fitted effect of over 45% in size
Conditions: S. cerevisiae fusion-defective mutant growth rescue, CellTiterGlo 48 h; at 46.1 µM (top of the series)
From the text: NIH Chemical Genomics Center [NCGC] NIH Molecular Libraries Probe Production centers Network [MLPCN] MLPCN Grant: MH081279-01 Assay Submitter (PI): Jodi M. Nunnari NCGC Assay Overview: The budding yeast S. cerevisiae is a powerful system to study mitochondrial fusion. Unlike other organisms, yeast cells without functional mitochondrial DNA (mtDNA) can be propagated and studied as long as they maintain a mitochondrial compartment and are provided with a fermentable carbon source. When mitochondrial fusion is blocked in yeast, mitochondrial tubules rapidly fragment and division continues unopposed. Under conditions where fusion is compromised in mammalian cells, nearly identical changes in mitochondrial structure have been observed. Thus, these findings indicate that steady state mitochondrial structure in cells is a characteristic and specific indicator of fusion activity. Mounting evidence has pointed to a connection between mitochondrial dynamics and apoptosis in mammalian cells. These studies indicate that in mammalian cells mitochondrial dynamics are more integrated into cellular processes than in yeast cells and have evolved not only to distribute the organelle but also to aid in the regulation of cellular homeostasis. Mitochondrial fusion proteins attenuate apoptosis by inhibiting the release of cytochrome c from mitochondria, in part by controlling cristae structures. Thus, small molecules that inhibit mitochondrial […] may promote apoptosis and potentially act as novel chemotherapeutics and stimulation of apoptosis has become an attractive target of anti-cancer therapies. To identify inhibitors of mitochondrial division, we exploit the growth phenotypes of mitochondrial fusion-defective mutants. The temperature sensitive fusion alleles, such as fzo1-1 and mgm1-5, cause mitochondrial membranes to fragment in cells under non-permissive conditions and cells lose mtDNA, and are unable to grow in the presence of non-fermentable carbon source glycerol. Inhibiting mitochondrial division rescues growth. We have developed and optimized a luminescence cell viability assay in 1536 well format for the identification of inhibitors in the yeast mitochondrial fusion-defective assay.
The yeast glycerol stocks where kindly supplied by the laboratory of Dr. Jodi Nunnari, University of California, Davis. All yeast glycerol stock solutions were stored in single use aliquots at -80C. The CellTiterGlo luminescence reagent, containing luciferase and luciferin, were purchased from Promega, and the reagents were stored according to manufacturer's instructions. The Buffer components for the YPEG yeast growth medium were purchased from Sigma-Aldrich (St. Louis, MO). YPEG growth medium: 1% (w/v) yeast extract, 2% (w/v) Bacto-peptone, 3% Ethanol, 3% glycerol, 0.4mM Tryptophan, 0.36mM Adenine. qHTS Assay Protocol: 1.#Dispense 2.5 ul yeast growth medium per 1536 well plate. 2.#Transfer 23 nl per well of compound to plate. 3.#Dispense 2.5 ul yeast solution at appropriate seeding density per well. 4.#Incubate for 48 hours at 37C. 5.#Dispense 5 ul of CellTiterGlow solution per well. 6.#Incubate at ambient for 10 minutes. 7.#Read using bio-luminescence protocol on Viewlux.

Row | Compound | growth rescue (activation)
1 | CCOC(=O)c1ccc(NP(C)(=O)Oc2ccc(Cl)cc2)cc1 (configuration not stated) | inactive: 3.96%
2 | CN(C)C(=O)c1c([N+](=O)[O-])cc([N+](=O)[O-])cc1[N+](=O)[O-] | inactive: -6.48%
3 | CP(=O)(Nc1ccc(Cl)cc1)Oc1ccc(F)cc1 (configuration not stated) | inactive: 3.53%
4 | CC(C)(C)c1ccc(OP(C)(=O)O)cc1 | inactive: -1.31%
5 | COc1ccccc1OP(C)(=O)Nc1ccccc1Br (configuration not stated) | inactive: -2.57%
6 | CCc1ccc(OP(C)(=O)Nc2cccnc2)cc1 (configuration not stated) | inactive: 8.35%
7 | CP(=O)(Oc1ccccc1)N1CCOC1=O (configuration not stated) | inactive: -6.97%
8 | O=C(OCCCN1CCCC1)C(O)(c1ccccc1)C1CCCCC1 (configuration not stated) | inactive: -7.83%
9 | COc1ccccc1OP(C)(=O)Nc1c(C)n(C)n(-c2ccccc2)c1=O (configuration not stated) | inactive: 0.349%
10 | COc1ccc(OP(C)(=O)Nc2ccc(Br)cc2)cc1 (configuration not stated) | inactive: -0.409%
11 | CCN(CC)CC(O)COC(=O)C(O)(c1ccccc1)C1CCCCC1 (configuration not stated) | inactive: -1.55%
12 | CCc1ccc(OP(C)(=O)O)cc1 | inactive: -2.74%
13 | COc1ccccc1OP(C)(=O)Nc1ccc(C)cc1C (configuration not stated) | inactive: 2.15%
14 | CP(=O)(Nc1ccccn1)Oc1ccccc1 (configuration not stated) | inactive: 1.93%
15 | O=[N+]([O-])c1cc([N+](=O)[O-])c(Nc2ccccn2)c([N+](=O)[O-])c1 | inactive: -30.1%
16 | Cc1c(NP(C)(=O)Oc2ccc(C(C)C)cc2)c(=O)n(-c2ccccc2)n1C (configuration not stated) | inactive: 2.48%
17 | CN(C)CCOC(=O)C(O)(c1ccccc1)C1CCCC1 (configuration not stated) | inactive: -1.27%
18 | COc1ccc(OP(C)(=O)Nc2ccccn2)cc1 (configuration not stated) | inactive: -0.79%
19 | COc1ccccc1OP(C)(=O)Nc1ccc(Br)cc1 (configuration not stated) | inactive: 2.83%
20 | CP(=O)(OCCOc1ccccc1)OCCOc1ccccc1 | inactive: 0.184%
21 | CP(=O)(Nc1ccc(Cl)cc1Cl)Oc1ccccc1 (configuration not stated) | inactive: 4.98%
22 | Cc1nc2ccc3ccccc3c2o1.O=[N+]([O-])c1cc([N+](=O)[O-])c(O)c([N+](=O)[O-])c1 | inactive: -0.145%
23 | COc1ccc(OP(C)(=O)Nc2ccccc2Br)cc1 (configuration not stated) | inactive: 9.44%
24 | COc1ccccc1OP(C)(=O)Nc1ccc(C)c(C)c1 (configuration not stated) | inactive: 1.37%
25 | Cc1cc(C)cc(OP(C)(=O)Nc2cccc(C(F)(F)F)c2)c1 (configuration not stated) | inactive: 13.1%
26 | CCCCCOc1ccc(NP(C)(=O)Oc2ccc(Cl)cc2Cl)cc1 (configuration not stated) | inactive: 3.19%

Row | Compound | growth rescue (activation)
27 | CP(=O)(Nc1ccccc1)Oc1ccc(F)cc1 (configuration not stated) | inactive: -0.0174%
28 | CCN(CC)CCCOC(=O)C(O)(c1ccccc1)C1CCCCC1 (configuration not stated) | inactive: -0.958%
29 | COc1ccc(OP(C)(=O)Nc2ccc(SC(F)(F)F)cc2)cc1 (configuration not stated) | inactive: 22.7%
30 | O=C(OCCN1CCN(CCOCc2ccccc2)CC1)C(O)(c1ccccc1)c1ccccc1 | inactive: -1.16%
31 | CC(C)c1ccc(OP(C)(=O)Nc2ccc(SC(F)(F)F)cc2)cc1 (configuration not stated) | inactive: 2.81%
32 | CP(=O)(Nc1ccccc1F)Oc1ccccc1 (configuration not stated) | inactive: 0.0837%
33 | Cc1ccccc1NP(C)(=O)Nc1ccccc1C | inactive: 0.583%
34 | CP(=O)(Nc1ccc2c(c1)OCCO2)Oc1ccccc1 (configuration not stated) | inactive: 3.04%
35 | CCOP(C)(=S)SCC(=O)NC(C)(CC)C(=O)O (configuration not stated) | inactive: -4.38%
36 | CP(=O)(Nc1ccc(SC(F)(F)F)cc1)Oc1ccc(F)cc1 (configuration not stated) | inactive: 8.47%
37 | Cc1cc(-c2cccc3ccccc23)c(C)cn1.O=[N+]([O-])c1cc([N+](=O)[O-])c(O)c([N+](=O)[O-])c1 | inactive: -0.231%
38 | O=[N+]([O-])c1ccc(OP2(=O)COCCO2)cc1 (configuration not stated) | inactive: -0.0091%
39 | COc1ccc(NP(C)(=O)Oc2ccccc2OC)cc1 (configuration not stated) | inactive: -4.51%
40 | CN(C)CCOC(=O)C(O)(c1ccccc1)C1CCCCC1 (configuration not stated) | inactive: -4.22%
41 | COc1ccc(OP(C)(=O)Nc2cccc(Br)c2)cc1 (configuration not stated) | inactive: 0.984%
42 | CP(=O)(Nc1ccc(SC(F)(F)F)cc1)Oc1ccccc1 (configuration not stated) | inactive: 14.2%
43 | CN1CCCCC1COC(=O)C1(O)c2ccccc2CCc2ccccc21 (configuration not stated) | inactive: -8.11%
44 | COc1ccccc1OP(C)(=O)Nc1c(C)cccc1C (configuration not stated) | inactive: -1.53%
45 | O=[N+]([O-])c1cc([N+](=O)[O-])c(Nc2nnnn2CCO)c([N+](=O)[O-])c1 | inactive: 17.2%
46 | CC1=C2N=C(C=C3N=C(C(C)=C4[N-][C@@](C)([C@@H]5N=C1[C@](C)(CCC(=O)NC[C@@H](C)OP(=O)([O-])O[C@H]1[C@@H](O)[C@@H](n6cnc7cc(C)c(C)cc76)O[C@@H]1CO)[C@H]5CC(N)=O)[C@@](C)(CC(N)=O)[C@@H]4CCC(N)=O)[C@@](C)(CC(N)=O)[C@@H]3CCC(N)=O)C(C)(C)[C@@H]2CCC(N)=O.[C-]#N.[Co+3] | inactive: -19.3%
47 | Cc1nc2ccc3ccccc3c2s1.O=[N+]([O-])c1cc([N+](=O)[O-])c(O)c([N+](=O)[O-])c1 | inactive: 1.88%
48 | O=[N+]([O-])c1cc([N+](=O)[O-])c(-n2nnc3ccccc32)c([N+](=O)[O-])c1 | inactive: 2.9%
49 | CP(=O)(Nc1cccc(Br)c1)Oc1ccccc1 (configuration not stated) | inactive: 11.6%
50 | Cc1cc(C)cc(OP(C)(=O)Nc2ccccn2)c1 (configuration not stated) | inactive: -1.61%
51 | Cc1ccc(C)c(NP(C)(=O)Oc2ccccc2)c1 (configuration not stated) | inactive: -2.08%
52 | Cc1cc(C)cc(OP(C)(=O)Nc2ccc(C)cc2C)c1 (configuration not stated) | inactive: 3.1%

Row | Compound | growth rescue (activation)
53 | CCOC(=O)c1ccc(NP(C)(=O)Oc2cc(C)cc(C)c2)cc1 (configuration not stated) | inactive: -1.98%
54 | COc1ccccc1OP(C)(=O)Nc1cccc(Br)c1 (configuration not stated) | inactive: -0.362%
55 | CC1=NCCc2c1[nH]c1ccccc21.O=[N+]([O-])c1cc([N+](=O)[O-])c(O)c([N+](=O)[O-])c1 | inactive: 2.45%
56 | COc1ccc(OP(C)(=O)Nc2cccc(F)c2)cc1 (configuration not stated) | inactive: 0.855%
57 | COc1ccccc1OP(C)(=O)Nc1cc(Cl)ccc1C (configuration not stated) | inactive: 2.59%
58 | Cc1cc(C)cc(OP(C)(N)=O)c1 (configuration not stated) | inactive: 6.83%
59 | CCOC(=O)c1ccc(NP(C)(=O)Oc2ccccc2)cc1 (configuration not stated) | inactive: 1.05%
60 | Cc1ccc(NP(C)(=O)Oc2ccccc2)c(C)c1 (configuration not stated) | inactive: 11.1%
61 | COc1ccccc1OP(C)(=O)Nc1ccc(C)cc1 (configuration not stated) | inactive: 0.4%
62 | Cc1cccc(C)c1OP(C)(N)=O (configuration not stated) | inactive: 24.4%
63 | CC(C)(C)c1ccc(OP(C)(=O)Nc2ccc(SC(F)(F)F)cc2)cc1 (configuration not stated) | inactive: -22.9%
64 | O=[N+]([O-])c1ccc2c(c1)C=Nc1ccccc1O2 | inactive: -2.4%
65 | O=[N+]([O-])c1cc([N+](=O)[O-])c(Nc2cccnc2)c([N+](=O)[O-])c1 | inactive: -2.1%
66 | CCN(CC)CCCOC(=O)C(O)(c1ccccc1)c1ccccc1 | inactive: -3.5%
67 | CP(=O)(Nc1ccccn1)Oc1ccc(Cl)cc1 (configuration not stated) | inactive: -0.752%
68 | CCOP(C)(=S)SCC(=O)NC(C)C(=O)O (configuration not stated) | inactive: 3.93%
69 | CCOC(=O)c1ccc(NP(C)(=O)Oc2ccc(OC)cc2)cc1 (configuration not stated) | inactive: -9.86%
70 | Cc1cc(C)cc(OP(C)(=O)Nc2ccc(SC(F)(F)F)cc2)c1 (configuration not stated) | inactive: 0.227%
71 | CCc1ccc(OP(C)(=O)N2CCN(c3ccc([N+](=O)[O-])cc3)CC2)cc1 (configuration not stated) | inactive: 6.64%
72 | CP(=O)(NC(=O)Nc1ccccc1)Oc1ccccc1 (configuration not stated) | inactive: 1.23%
73 | CP(=O)(Oc1ccccc1)OC(c1ccccc1)C(F)(F)F (configuration not stated) | inactive: 3.67%
74 | CP(=O)(Nc1ccc(SC(F)(F)F)cc1)Oc1ccc(Cl)cc1 (configuration not stated) | inactive: 17%
75 | COc1ccccc1OP(C)(=O)Nc1ccccc1 (configuration not stated) | inactive: 1.85%
76 | CP(=O)(Nc1ccccc1Br)Oc1ccccc1 (configuration not stated) | inactive: 4.01%
77 | CP(=S)(Nn1cnnc1)Oc1ccccc1 (configuration not stated) | inactive: -0.153%
